Compound activity deposited in PubChem BioAssay by National Center for Advancing Translational Sciences (NCATS).
TDP1 inh = TDP1 (human) enzyme inhibition; Potency, µM (series often up to 130 µM), for inactives: top-dose activity change, negative = inhibition, usual class: inhibitors; recombinant TDP1, AlphaScreen DNA substrate cleavage; 350,000 compounds, 0.28% hits; further: potency means the concentration at half of the fitted maximal effect; on the % scale 0 is the no-effect control and ±100 the full control effect; nearly all actives have a fitted effect of over 40% in size
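Signal: AlphaScreen proximity between streptavidin donor and anti-FITC acceptor beads on intact substrate. Reaction: Tdp1 1 nM, substrate 15 nM final, 5 min RT after 15 min compound preincubation.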
DT40 TDP1 no CPT = qHTS for Inhibitors of human tyrosyl-DNA phosphodiesterase 1 (TDP1): qHTS in cells in absence of CPT; DT40 Tdp1-/- hTDP1 cells, no CPT, ATP luminescence, 48 h; 420,000 compounds, 15% hits; Potency, µM (highest dose often 46.2 µM), inactives show at the highest dose activity change, negative = growth inhibition, hits mostly inhibitors; further: potency means the concentration at half of the fitted maximal effect; on the % scale 0 is the no-effect control and ±100 the full control effect; nearly all actives have a fitted effect of over 55% in size
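Chicken DT40 Tdp1-/- cells stably complemented with human TDP1 were seeded at 400 cells/well with DMSO in place of 20 nM camptothecin. After compound pinning, cells grew at least 48 hr at 37 °C; viability read by CellTiter-Glo luminescence.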
TDP1 cell CPT = DT40-hTDP1 cell growth loss with CPT; 420,000 compounds, 12% hits; Potency, µM (top dose mostly 46.2 µM), for inactives: at the highest dose activity change, negative = growth inhibition, most hits filed as inhibitors; chicken DT40 Tdp1-/-;hTDP1 cells + 20 nM CPT, ATP luminescence, 48 h; further: potency means the concentration at half of the fitted maximal effect; on the % scale 0 is the no-effect control and ±100 the full control effect; nearly all actives have a fitted effect of over 55% in size
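Cell growth measured by CellTiter-Glo luminescence after a minimum 48 h, 37 C compound exposure with 20 nM CPT in Tdp1-knockout DT40 cells stably expressing hTDP1, seeded 400/well; qHTS titration format.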
uPA surface inh = blocks generation of uPA at the cell surface | cell surface uPA generation assay, qHTS | Potency, µM (titrated, usually from 38.3 µM), without a hit: top-dose activity change, negative = inhibition, hits mostly inhibitors | 330,000 compounds, 0.31% hits; active means well fitted inhibition curve with a large enough effect; inconclusive means small, poorly fitted or top-dose-only effect; inactive means no such curve, though single readings can be large or run the other way; tested in mouse RAW 264.7 cells; further: potency means the concentration at half of the fitted maximal effect; on the % scale 0 is the no-effect control and ±100 the full control effect; nearly all actives have a fitted effect of over 55% in size
miR-21 reporter = raises the signal of a miR-21 reporter; Potency, µM (doses to about 38.3 µM), inactives show top-dose reporter change, positive = more light; HeLa miR-21 FLuc reporter, luciferase, 48 h; AID 2288; 340,000 tested, under 10 active; active = well fitted rising curve with a large enough effect; inconclusive = small, poorly fitted or top-dose-only effect; inactive = no such curve, though single readings can be large or run the other way;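 further: % of control where 0% means no effect; miR-21 action dims this reporter so a rising signal means less miR-21 action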
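Luminescence from a firefly luciferase reporter carrying a miR-21 binding site downstream, stably expressed under a CMV promoter in HeLa cells that make miR-21 endogenously, reports miRNA modulation after 48 h compound exposure up to approximately 40uM final.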
Active calls of the source: *; ? = inconclusive; / = no result. Rows were chosen to be rich in hits. Some 16% of all compounds tested hit in one or more screens of this group. Unless noted, the call rests on the fitted dose curve; in most records, active means well fitted curve in the direction sought with a large enough effect; inconclusive means small, poorly fitted or top-dose-only effect, or another doubt; inactive means no such curve, though single readings can be large; an effect the other way counts as inactive or inconclusive.

| cpd | Compound | TDP1 inh | DT40 TDP1 no CPT | TDP1 cell CPT |
| --- | --- | --- | --- | --- |
| 1 | CC(C)Oc1ccc(C(CCNCc2ccc(O)cc2)c2ccccc2)cc1 (stereo not given) | / | 4.1µM* | 5.8µM* |
| 2 | C=CC[C@H](CC(=O)N(CCO)Cc1ccccc1)C(=O)N[C@H](COC(=O)[C@@H](CC=C)Cc1ccc(F)cc1)Cc1ccccc1 | -2% | 21µM* | 21µM* |
| 3 | C=CC[C@@H](CC(=O)N(CCO)Cc1ccccc1)C(=O)N[C@H](C)COC(=O)[C@@H](CC=C)Cc1ccc(F)cc1 | 0% | ? | ? |
| 4 | C=CC[C@H](CC(=O)N(CCO)Cc1ccccc1)C(=O)N[C@H](C)COC(=O)[C@@H](CC=C)Cc1ccc(F)cc1 | 1% | 21µM* | ? |
| 5 | C=CC[C@@H](CC(=O)N(CCO)Cc1ccccc1)C(=O)NCCOC(=O)[C@@H](CC=C)Cc1ccc(F)cc1 | 0% | 13µM* | 21µM* |
| 6 | C=CCC[C@H](Cc1ccc(F)cc1)C(=O)O[C@H](CNC(=O)[C@@H](CC=C)CC(=O)N(CCO)Cc1ccccc1)c1ccccc1 | 0% | 23µM* | ? |
| 7 | O=C(C[n+]1ccc2ccccc2c1)c1ccc2ccc3ccccc3c2c1 | / | 4.1µM* | 3.3µM* |
| 8 | CCN(CC)S(=O)(=O)c1ccc(N2CCOCC2)c(NC(=O)C23CC4CC(CC(Cl)(C4)C2)C3)c1 | -1% | 23µM* | ? |
| 9 | CCN(CC)S(=O)(=O)c1ccc(N2CCOCC2)c(NC(=S)NC(=O)c2ccco2)c1 | 5% | ? | 10µM* |
| 10 | Cc1ccccc1C(=O)Nc1cc(S(=O)(=O)N2CCCCC2)ccc1N1CCN(C)CC1 | 6% | -44% | -10% |

| cpd | uPA surface inh | miR-21 reporter |
| --- | --- | --- |
| 1 | ? | ? |
| 2 | ? | / |
| 3 | -1% | / |
| 4 | -10% | / |
| 5 | 3% | / |
| 6 | ? | / |
| 7 | / | / |
| 8 | -9% | -1% |
| 9 | -2% | 8% |
| 10 | -13% | -4% |

Exported with values under each structure: entries from further up.
Results follow in this order: TDP1 inh | DT40 TDP1 no CPT | TDP1 cell CPT | uPA surface inh | miR-21 reporter
3. C=CC[C@@H](CC(=O)N(CCO)Cc1ccccc1)C(=O)N[C@H](C)COC(=O)[C@@H](CC=C)Cc1ccc(F)cc1
 : 0% | ? | ? | -1% | /
4. C=CC[C@H](CC(=O)N(CCO)Cc1ccccc1)C(=O)N[C@H](C)COC(=O)[C@@H](CC=C)Cc1ccc(F)cc1
 : 1% | 21µM* | ? | -10% | /
5. C=CC[C@@H](CC(=O)N(CCO)Cc1ccccc1)C(=O)NCCOC(=O)[C@@H](CC=C)Cc1ccc(F)cc1
 : 0% | 13µM* | 21µM* | 3% | /
6. C=CCC[C@H](Cc1ccc(F)cc1)C(=O)O[C@H](CNC(=O)[C@@H](CC=C)CC(=O)N(CCO)Cc1ccccc1)c1ccccc1
 : 0% | 23µM* | ? | ? | /

More structures follow.
| cpd | Compound | TDP1 inh | DT40 TDP1 no CPT | TDP1 cell CPT |
| --- | --- | --- | --- | --- |
| 11 | CCc1cc(C(=O)Nc2cc(S(=O)(=O)N3CCCCC3)ccc2N2CCN(C)CC2)sc1C | / | 4.1µM* | 4.6µM* |
| 12 | CCN(CC)S(=O)(=O)c1ccc(N2CCOCC2)c(NC(=O)c2ccco2)c1 | 0% | ? | ? |
| 13 | CCN(CC)S(=O)(=O)c1ccc(N2CCOCC2)c(NC(=O)c2cc(C)cc(C)c2)c1 | 6% | 18µM* | 7.3µM* |
| 14 | CC1=C(C(=O)N2CCCCCC2)CC(CC(=O)NC2CCCC2)C(=O)N1CCC1=CCCCC1 (stereo not given) | / | -24% | ? |
| 15 | CCN1CCN(c2ccc(S(=O)(=O)N3CCOCC3)cc2NC(=O)c2sccc2C)CC1 | / | -3% | -7% |
| 16 | CCc1cc(C(=O)Nc2cc(S(=O)(=O)N(CC)CC)ccc2N2CCOCC2)sc1C | -1% | ? | 21µM* |
| 17 | CCN(CC)S(=O)(=O)c1ccc(N2CCOCC2)c(NC(=O)c2sccc2C)c1 | 2% | 18µM* | ? |
| 18 | OCC1OC(n2cnc3c(SCc4ccccc4)nc(F)nc32)C(O)C1O (stereo not given) | / | -13% | -26% |
| 19 | Cc1ccc(-n2c(O)c(C=NC3CCS(=O)(=O)C3)c3ccccc3c2=O)cc1C (stereo not given) | 6% | 18µM* | 10µM* |
| 20 | Cc1cc(C)cc(-n2c(O)c(C=NC3CCS(=O)(=O)C3)c3ccccc3c2=O)c1 (stereo not given) | 3% | ? | 16µM* |

| cpd | uPA surface inh | miR-21 reporter |
| --- | --- | --- |
| 11 | / | / |
| 12 | -1% | / |
| 13 | -19% | -2% |
| 14 | / | / |
| 15 | 0% | / |
| 16 | -25% | / |
| 17 | -7% | / |
| 18 | 3% | / |
| 19 | -8% | 0% |
| 20 | / | -6% |

(list continues)
| cpd | Compound | TDP1 inh | DT40 TDP1 no CPT | TDP1 cell CPT |
| --- | --- | --- | --- | --- |
| 21 | Cc1ccc(N=Cc2c(O)n(-c3ccc4c(c3)OCO4)c(=O)c3ccccc23)cc1 | 0% | ? | ? |
| 22 | Cc1cccc(-n2c(O)c(C=NC3CCS(=O)(=O)C3)c3ccccc3c2=O)c1 (stereo not given) | -10% | ? | 13µM* |
| 23 | Cc1ccc(-n2c(O)c(C=Nc3ccccc3-c3n[nH]c(=S)[nH]c3=O)c3ccccc3c2=O)cc1C | 2% | ? | ? |
| 24 | Cc1cccc(-n2c(O)c(C=NC3CCS(=O)(=O)C3)c3ccccc3c2=O)c1C (stereo not given) | 8% | ? | 5.2µM* |
| 25 | Cc1ccccc1-n1c(O)c(C=NC2CCS(=O)(=O)C2)c2ccccc2c1=O (stereo not given) | / | ? | -29% |
| 26 | Cc1cccc(-n2c(O)c(C=NCc3ccccn3)c3ccccc3c2=O)c1 | 5% | ? | 18µM* |
| 27 | COc1ccccc1-n1c(O)c(C=NCc2ccccn2)c2ccccc2c1=O | 5% | -22% | ? |
| 28 | Cc1cccn2c(=O)c(/C=C(\C#N)C(N)=O)c(N3CCN(c4ccccc4)CC3)nc12 | / | 6.5µM* | ? |
| 29 | COCCNC(=O)/C(C#N)=C/c1c(N2CCN(c3ccccc3)CC2)nc2c(C)cccn2c1=O | / | ? | 23µM* |
| 30 | Cc1ccccc1Oc1nc2c(C)cccn2c(=O)c1/C=C(\C#N)C(=O)Nc1c(C)n(C)n(-c2ccccc2)c1=O | 4% | 21µM* | 21µM* |

| cpd | uPA surface inh | miR-21 reporter |
| --- | --- | --- |
| 21 | 2% | -2% |
| 22 | -9% | -3% |
| 23 | 3% | 8% |
| 24 | -2% | 7% |
| 25 | 14% | 0% |
| 26 | -1% | 7% |
| 27 | -5% | -1% |
| 28 | -1% | -6% |
| 29 | -3% | 1% |
| 30 | -8% | 0% |

The list goes on.
| cpd | Compound | TDP1 inh | DT40 TDP1 no CPT | TDP1 cell CPT |
| --- | --- | --- | --- | --- |
| 31 | N#C/C(=C\c1c(N2CCN(c3ccccc3)CC2)nc2ccccn2c1=O)C(N)=O | / | -19% | -16% |
| 32 | Cc1ccccc1Oc1nc2ccccn2c(=O)c1/C=C(\C#N)C(=O)Nc1c(C)n(C)n(-c2ccccc2)c1=O | 2% | ? | ? |
| 33 | COCCNC(=O)/C(C#N)=C/c1c(N2CCN(c3cccc(Cl)c3)CC2)nc2c(C)cccn2c1=O | / | 23µM* | 16µM* |
| 34 | CCNC(=O)/C(C#N)=C/c1c(N2CCN(c3ccccc3)CC2)nc2c(C)cccn2c1=O | / | ? | ? |
| 35 | CCNC(=O)/C(C#N)=C/c1c(N2CCN(c3ccc(OC)cc3)CC2)nc2c(C)cccn2c1=O | / | 21µM* | ? |
| 36 | C=CCNC(=O)/C(C#N)=C/c1c(N2CCN(c3cccc(Cl)c3)CC2)nc2c(C)cccn2c1=O | / | ? | ? |
| 37 | CNC(=O)/C(C#N)=C/c1c(N2CCN(c3cccc(Cl)c3)CC2)nc2c(C)cccn2c1=O | / | 12µM* | ? |
| 38 | CCNC(=O)/C(C#N)=C/c1c(N2CCCCCC2)nc2c(C)cccn2c1=O | / | 23µM* | ? |
| 39 | COCCNC(=O)/C(C#N)=C/c1c(N2CCN(c3ccc(OC)cc3)CC2)nc2c(C)cccn2c1=O | / | 23µM* | 23µM* |
| 40 | Cc1cccc(CC(=O)N2CC(=O)Nc3ccc(Br)cc3C2c2ccc(F)cc2)c1 (stereo not given) | 6% | ? | ? |
| 41 | Cc1c(Cl)cccc1NC(=O)CNc1cccc(C(F)(F)F)c1 | 0% | -37% | -17% |

| cpd | uPA surface inh | miR-21 reporter |
| --- | --- | --- |
| 31 | -11% | -45% |
| 32 | -10% | -6% |
| 33 | 13% | -4% |
| 34 | -5% | 0% |
| 35 | -9% | -1% |
| 36 | 6% | -4% |
| 37 | -2% | -3% |
| 38 | -2% | 5% |
| 39 | -5% | 0% |
| 40 | / | ? |
| 41 | 2% | 0% |
